Assay results from paper PMC8344253, “Identifying requirements for RSK2 specific inhibitors” (Journal of Enzyme Inhibition and Medicinal Chemistry, 2021).

The chains behind the UniProt entries cited, without tags or fusion partners.
UniProt P51812, whole entry: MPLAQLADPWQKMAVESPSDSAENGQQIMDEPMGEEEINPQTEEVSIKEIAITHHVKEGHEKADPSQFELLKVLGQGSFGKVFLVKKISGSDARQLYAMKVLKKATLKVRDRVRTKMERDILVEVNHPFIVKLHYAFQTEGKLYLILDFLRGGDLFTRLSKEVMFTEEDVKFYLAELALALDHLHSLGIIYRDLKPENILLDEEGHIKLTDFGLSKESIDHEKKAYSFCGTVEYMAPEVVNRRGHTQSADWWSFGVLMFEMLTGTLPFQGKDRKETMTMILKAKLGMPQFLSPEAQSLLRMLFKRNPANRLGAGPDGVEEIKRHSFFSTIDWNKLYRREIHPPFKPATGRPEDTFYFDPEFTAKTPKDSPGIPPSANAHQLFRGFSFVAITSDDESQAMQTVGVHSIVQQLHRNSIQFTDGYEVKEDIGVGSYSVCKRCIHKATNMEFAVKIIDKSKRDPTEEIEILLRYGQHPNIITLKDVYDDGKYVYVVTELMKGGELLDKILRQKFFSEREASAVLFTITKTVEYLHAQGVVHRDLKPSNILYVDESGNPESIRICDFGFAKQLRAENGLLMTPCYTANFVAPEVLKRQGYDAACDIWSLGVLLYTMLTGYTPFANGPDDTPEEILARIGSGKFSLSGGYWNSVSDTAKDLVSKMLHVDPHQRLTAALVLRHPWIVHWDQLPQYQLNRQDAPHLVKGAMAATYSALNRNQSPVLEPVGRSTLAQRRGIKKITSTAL

Molecular target: RSK2 (Homo sapiens, UniProt P51812)
Assay: FRET kinase binding assay (LanthaScreen Eu Kinase Binding Assay), full-length RSK2
Settings: for % Uninhibited kinase at 30 μM: 30 μM inhibitor
Protocol: Normalised EMR was calculated in MATLAB (Mathworks).
Hill slope and IC50 were unconstrained. […] Statistical significance is considered using α = 0.01.

Time dependence of efficacy to inhibit RSK2 (2 h vs 5 min incubation): no time dependence
% Uninhibited kinase at 30 μM (RSK2, 5 min incubation): 1.1%
% Uninhibited kinase at 30 μM (RSK2, 2 h incubation): 1.2%
Compound: CC(C)CCN1c2nc(Nc3cc(F)c(O)c(F)c3)ncc2N(C)C(=O)C1C (stereo not drawn) [BI-D1870, reference compound]
